# According to article PMC7880549 (Bioorganic & medicinal chemistry, 2020):
# Chains of the proteins cited; added tags and fusions are not shown.
# UniProt Q9Y5K5, whole entry: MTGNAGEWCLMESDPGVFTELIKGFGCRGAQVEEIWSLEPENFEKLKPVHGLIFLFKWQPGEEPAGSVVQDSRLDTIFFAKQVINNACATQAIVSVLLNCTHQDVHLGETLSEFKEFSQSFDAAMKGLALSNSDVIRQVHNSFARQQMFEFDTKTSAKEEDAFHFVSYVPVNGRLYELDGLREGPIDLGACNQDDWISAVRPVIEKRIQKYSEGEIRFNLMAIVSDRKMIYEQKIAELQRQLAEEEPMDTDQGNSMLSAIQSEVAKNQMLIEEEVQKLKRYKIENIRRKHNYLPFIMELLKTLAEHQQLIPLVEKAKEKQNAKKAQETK
# Target: UCHL5 (Homo sapiens, UniProt Q9Y5K5)
# Experiment: in vitro DUB assay with purified UCHL5 and Ub-rhodamine 110
# Assay type: biochemical
# Details: read-out: inhibition of UCHL5 activity
smiles,measurement,value
"CC(C(=O)O)c1ccc(C(=O)c2ccccc2)s1 (stereo not shown) [TA, tiaprofenic acid, reference compound]",inhibition at 200 µM,15 to 20%
